{"sequences": {"note": "By UniProt entry, the sequences of proteins in these tests, tags left out. Residues count along the entry.", "UniProt O75417, 1780-2590": "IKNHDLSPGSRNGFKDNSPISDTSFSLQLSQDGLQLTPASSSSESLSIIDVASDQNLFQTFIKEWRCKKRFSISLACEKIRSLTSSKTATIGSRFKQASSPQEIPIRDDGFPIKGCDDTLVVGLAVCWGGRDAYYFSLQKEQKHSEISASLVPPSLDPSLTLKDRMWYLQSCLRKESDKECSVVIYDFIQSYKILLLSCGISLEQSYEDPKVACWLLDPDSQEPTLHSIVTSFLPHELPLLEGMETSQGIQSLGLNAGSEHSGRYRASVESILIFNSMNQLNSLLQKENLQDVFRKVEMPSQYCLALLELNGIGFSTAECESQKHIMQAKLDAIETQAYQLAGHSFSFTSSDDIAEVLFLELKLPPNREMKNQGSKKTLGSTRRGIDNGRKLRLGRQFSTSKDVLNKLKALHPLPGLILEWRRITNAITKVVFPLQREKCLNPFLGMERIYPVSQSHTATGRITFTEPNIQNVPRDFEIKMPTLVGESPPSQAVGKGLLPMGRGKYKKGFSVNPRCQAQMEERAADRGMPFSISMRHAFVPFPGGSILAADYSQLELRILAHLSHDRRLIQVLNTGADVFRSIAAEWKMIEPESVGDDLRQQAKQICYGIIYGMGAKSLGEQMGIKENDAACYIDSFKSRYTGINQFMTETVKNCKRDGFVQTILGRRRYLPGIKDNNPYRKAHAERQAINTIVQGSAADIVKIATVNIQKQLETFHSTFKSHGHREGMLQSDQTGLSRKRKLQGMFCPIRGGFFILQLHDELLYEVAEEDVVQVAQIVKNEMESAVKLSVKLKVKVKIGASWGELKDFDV"}, "source": "patent US20250195530A1", "about": "“POLQ INHIBITORS” (ASTRAZENECA AB, priority 2022, published 2025)", "target": "isolated polymerase domain (I1780-V2590) of DNA polymerase theta (Polθ) (Homo sapiens (Human), UniProt O75417)", "assay": "biochemical"}
{"smiles": "Cc1cnn(C)c1Cn1c(-c2ccc(CC(N)=O)cc2Cl)nc2c(OC3(C)CC3)ncnc21", "note": "[Example T31, 2-(3-chloro-4-(9-((1,4-dimethyl-1H-pyrazol-5-yl)methyl)-6-(1-methylcyclopropoxy)-9H-purin-8-yl)phenyl)acetamide]", "values": [{"measurement": "IC50", "result": 794, "unit": "nM"}]}
{"smiles": "CC1(Oc2ncnc3c2nc(-c2ccc(OCC(=O)N4CCNCC4)cc2Cl)n3Cc2ccccc2)CC1", "note": "[Example C8, 2-(4-(9-benzyl-6-(1-methylcyclopropoxy)-9H-purin-8-yl)-3-chloro-phenoxy)-1-(piperazin-1-yl)ethan-1-one]", "values": [{"measurement": "IC50", "result": 3.98, "unit": "nM"}]}
{"smiles": "Cc1ccnc(Cn2c(-c3ccc(C(=O)NCCO)cc3Cl)nc3c(OC4(C)CC4)ncnc32)c1", "note": "[Example T119, 3-chloro-N-(2-hydroxyethyl)-4-(6-(1-methylcyclopropoxy)-9-((4-methylpyridin-2-yl)methyl)-9H-purin-8-yl)benzamide]", "values": [{"measurement": "IC50", "result": 12.6, "unit": "nM"}]}
{"smiles": "CC(CCOc1ccc(-c2nc3c(OC4(C)CC4)ncnc3n2Cc2cccc(C#N)c2)c(Cl)c1)C(=O)O", "note": "(racemic) [Example T399, 4-(3-chloro-4-(9-(3-cyanobenzyl)-6-(1-methylcyclopropoxy)-9H-purin-8-yl)phenoxy)-2-methylbutanoic acid]", "values": [{"measurement": "IC50", "result": 3.16, "unit": "nM"}]}
{"smiles": "CC(CCOc1ccc(-c2nc3c(OC4(C)CC4)ncnc3n2Cc2ccc(F)c(Cl)c2)c(Cl)c1)C(=O)O", "note": "(racemic) [Example T269, 4-(3-chloro-4-(9-(3-chloro-4-fluorobenzyl)-6-(1-methylcyclopropoxy)-9H-purin-8-yl)phenoxy)-2-methylbutanoic acid]", "values": [{"measurement": "IC50", "result": 7.94, "unit": "nM"}]}
{"smiles": "Cc1ccnc(Cn2c(-c3ccc(OC[C@H]4CNC(=O)O4)cc3Cl)nc3c(OC4(C)CC4)ncnc32)c1", "note": "[Example T188, (R)-5-((3-chloro-4-(6-(1-methylcyclopropoxy)-9-((4-methylpyridin-2-yl)methyl)-9H-purin-8-yl)phenoxy)methyl)oxazolidin-2-one]", "values": [{"measurement": "IC50", "result": 3.98, "unit": "nM"}]}
{"smiles": "CC(CCOc1ccc(-c2nc3c(OC4(C)CC4)ncnc3n2Cc2cccc(I)c2)c(Cl)c1)C(=O)O", "note": "(racemic) [Example T285, 4-(3-chloro-4-(9-(3-iodobenzyl)-6-(1-methylcyclopropoxy)-9H-purin-8-yl)phenoxy)-2-methylbutanoic acid]", "values": [{"measurement": "IC50", "result": 7.94, "unit": "nM"}]}
{"smiles": "Cc1ccnc(Cn2c(-c3ccc(OCC(=O)N4CC[C@H](F)C4)cc3Cl)nc3c(OC4(C)CC4)ncnc32)c1", "note": "[Example T420, (S)-2-(3-chloro-4-(6-(1-methylcyclopropoxy)-9-((4-methylpyridin-2-yl)methyl)-9H-purin-8-yl)phenoxy)-1-(3-fluoropyrrolidin-1-yl)ethan-1-one]", "values": [{"measurement": "IC50", "result": 7.94, "unit": "nM"}]}
{"smiles": "CC(Cc1ccccn1)n1c(-c2ccc(OCCN3CCNCC3)cc2Cl)nc2c(OC3(C)CC3)ncnc21", "note": "(single isomer, unassigned) [Example S7, 8-(2-chloro-4-(2-(piperazin-1-yl)ethoxy)phenyl)-6-(1-methylcyclopropoxy)-9-(1-(pyridin-2-yl)propan-2-yl)-9H-purine]", "values": [{"measurement": "IC50", "result": 15.8, "unit": "nM"}]}
{"smiles": "COc1ccc(C)cc1Cn1c(-c2ccc(OCCC(C)C(=O)O)cc2Cl)nc2c(OC3(C)CC3)ncnc21", "note": "(racemic) [Example U1, 4-(3-chloro-4-(9-(2-methoxy-5-methylbenzyl)-6-(1-methylcyclopropoxy)-9H-purin-8-yl)phenoxy)-2-methylbutanoic acid]", "values": [{"measurement": "IC50", "result": 5.01, "unit": "nM"}]}
{"smiles": "CC(COc1cccc(-c2nc3c(OC4(C)CC4)ncnc3n2Cc2cccc(Cl)c2)c1Cl)CC(=O)O", "note": "(single isomer, unassigned) [Example T300, 4-(2-chloro-3-(9-(3-chlorobenzyl)-6-(1-methylcyclopropoxy)-9H-purin-8-yl)phenoxy)-3-methylbutanoic acid]", "values": [{"measurement": "IC50", "result": 3.98, "unit": "nM"}]}
{"smiles": "CC(CCOc1ccc(-c2nc3c(OC4(C)CC4)ncnc3n2Cc2cccc(Cl)c2F)c(Cl)c1)C(=O)O", "note": "(single isomer, unassigned) [Example T270, 4-(3-chloro-4-(9-(3-chloro-2-fluorobenzyl)-6-(1-methylcyclopropoxy)-9H-purin-8-yl)phenoxy)-2-methylbutanoic acid]", "values": [{"measurement": "IC50", "result": 6.31, "unit": "nM"}]}
